In patent US20110189347A1, “USE OF SUCCINIC ACID” (priority 2008, published 2011):

Tests used:
[1] = group B, 0.5% in diet, 29 days
[2] = Growth performance of broiler chickens, floor pen trial over five weeks (Example 6); type: in vivo
Description: The objective of the present trial (Trial A) was to evaluate the effects of sucinic acid on the growth performance of broiler chickens in a floor pen trial over five weeks. Succinic acid was supplemented at four different dose levels. […] Each group was placed in one floor pen littered with wood shavings and allocated to one of the different treatments. Each treatment was replicated with 4 groups per sex. Birds had ad libitum access to feed and tap water. […] Chickens received diets based on soybean meal, and wheat as main ingredients (Table 6). […] The target quantities of succinic acid were added on top to the feed, mixed with appropriate amounts of maize starch as a carrier: […] For the statistical evaluation of the data, a one-factorial analysis of variance for each diet (factor: treatment) was carried out. Where significant treatment effects (p<0.05) were indicated, the differences among treatment means were subsequently analyzed with the Newman-Keuls test.

[3] = dietary inclusion 1.0%

O=C(O)CCC(=O)O [Succinic acid, succinic acid]
Weight gain, relative to control (100) [1]: (105) | Feed intake ([1]; n = 4): 416 ± 37 g/day | Feed conversion, relative to control (100) ([2]; Day 1-22, 2.5 g/kg feed): 94.3 | Weight gain, relative to control (100) ([2]; Day 1-22, 2.5 g/kg feed): 109.7 | Feed conversion, relative to control (100) ([2]; Day 1-22, 5 g/kg feed): 100.9 | Weight gain, relative to control (100) ([2]; Day 1-22, 5 g/kg feed): 103.9 | Feed conversion, relative to control (100) ([2]; Day 1-22, 7.5 g/kg feed): 94.8 | Weight gain, relative to control (100) ([2]; Day 1-22, 7.5 g/kg feed): 110.5 | Feed conversion, relative to control (100) ([2]; Day 1-22, 10 g/kg feed): 95.4 | Weight gain, relative to control (100) ([2]; Day 1-22, 10 g/kg feed): 108.6 | Feed conversion, relative to control (100) ([2]; Day 1-36, 2.5 g/kg feed): 98.7 | Weight gain, relative to control (100) ([2]; Day 1-36, 2.5 g/kg feed): 103.6 | Feed conversion, relative to control (100) ([2]; Day 1-36, 5 g/kg feed): 101.2 | Weight gain, relative to control (100) ([2]; Day 1-36, 5 g/kg feed): 100.4 | Feed conversion, relative to control (100) ([2]; Day 1-36, 7.5 g/kg feed): 99.4 | Weight gain, relative to control (100) ([2]; Day 1-36, 7.5 g/kg feed): 104.5 | Feed conversion, relative to control (100) ([2]; Day 1-36, 10 g/kg feed): 101.7 | Weight gain, relative to control (100) ([2]; Day 1-36, 10 g/kg feed): 102.0 | Feed conversion, relative to control (100) ([2]; Day 22-36, 2.5 g/kg feed): 102.3 | Weight gain, relative to control (100) ([2]; Day 22-36, 2.5 g/kg feed): 99.2 | Feed conversion, relative to control (100) ([2]; Day 22-36, 5 g/kg feed): 102.1 | Weight gain, relative to control (100) ([2]; Day 22-36, 5 g/kg feed): 98.0 | Feed conversion, relative to control (100) ([2]; Day 22-36, 7.5 g/kg feed): 103.2 | Weight gain, relative to control (100) ([2]; Day 22-36, 7.5 g/kg feed): 100.2 | Feed conversion, relative to control (100) ([2]; Day 22-36, 10 g/kg feed): 106.9 | Weight gain, relative to control (100) ([2]; Day 22-36, 10 g/kg feed): 97.3 | Feed conversion (feed/gain ratio) ([3]; Day 0-14): 1.48 | Feed conversion (feed/gain ratio) ([3]; Day 14-24): 1.33 | Feed conversion (feed/gain ratio) ([3]; Day 24-36): 1.41 | Feed conversion (feed/gain ratio) ([3]; Overall, day 0-36): 1.40 | Feed conversion (feed/gain ratio), Index ([3]; overall day 0-36, Neg. Control = 100.0): 93.3%

Like-named read-outs stand apart in the source and are kept apart here.
